Values quoted from earlier work, collected in patent US20250297028A1, “TREATMENT OF RENAL CANCER USING A COMBINATION OF AN ANTI-PD-1 ANTIBODY AND ANOTHER ANTI-CANCER AGENT” (BRISTOL-MYERS SQUIBB COMPANY, priority 2014, published 2025).

Columns and labels:
[1] = tested on: renal cell carcinoma (RCC); settings: basis of approval; cited from earlier work
[2] = human, in vivo; cited from earlier work

IL-2: cytokine, systemic treatment for advanced or metastatic RCC
durable response rate [1]: 15% | toxicity: diarrhea [2]: 67% | toxicity: dyspnea [2]: 43% | toxicity: hypotension [2]: 71% | toxicity: rash [2]: 42% | toxicity: supraventricular tachycardia [2]: 12%
